Reference: PMC10823399 (Journal of medicinal chemistry, 2015)

Protein sequences, listed by entry. Tags and fused reporters are not part of them.
UniProt P14416, whole entry E95A: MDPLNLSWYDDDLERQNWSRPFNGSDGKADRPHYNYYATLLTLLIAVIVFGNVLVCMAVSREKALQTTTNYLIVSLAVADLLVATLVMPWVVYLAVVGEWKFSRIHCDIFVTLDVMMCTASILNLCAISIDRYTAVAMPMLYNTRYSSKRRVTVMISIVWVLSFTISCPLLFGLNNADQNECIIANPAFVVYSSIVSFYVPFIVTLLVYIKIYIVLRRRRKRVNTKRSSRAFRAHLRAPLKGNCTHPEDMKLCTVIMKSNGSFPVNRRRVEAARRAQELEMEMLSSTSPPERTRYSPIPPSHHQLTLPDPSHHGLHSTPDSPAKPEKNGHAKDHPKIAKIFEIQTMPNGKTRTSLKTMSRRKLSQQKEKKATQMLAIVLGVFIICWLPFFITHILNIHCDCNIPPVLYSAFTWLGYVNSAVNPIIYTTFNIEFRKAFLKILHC
UniProt P14416, whole entry: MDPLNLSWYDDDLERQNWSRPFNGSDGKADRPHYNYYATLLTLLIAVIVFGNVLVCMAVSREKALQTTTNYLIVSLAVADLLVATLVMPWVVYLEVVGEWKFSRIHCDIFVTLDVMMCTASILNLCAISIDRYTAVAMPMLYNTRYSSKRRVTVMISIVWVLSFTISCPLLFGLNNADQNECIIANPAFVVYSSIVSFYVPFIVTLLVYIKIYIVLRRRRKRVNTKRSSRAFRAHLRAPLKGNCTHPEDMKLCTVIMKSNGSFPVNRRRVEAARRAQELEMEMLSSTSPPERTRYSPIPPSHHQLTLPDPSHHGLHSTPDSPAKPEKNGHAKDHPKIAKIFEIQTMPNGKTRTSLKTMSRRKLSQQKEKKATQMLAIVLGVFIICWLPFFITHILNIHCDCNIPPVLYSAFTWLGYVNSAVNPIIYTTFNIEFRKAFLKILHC
UniProt P14416, whole entry V91A: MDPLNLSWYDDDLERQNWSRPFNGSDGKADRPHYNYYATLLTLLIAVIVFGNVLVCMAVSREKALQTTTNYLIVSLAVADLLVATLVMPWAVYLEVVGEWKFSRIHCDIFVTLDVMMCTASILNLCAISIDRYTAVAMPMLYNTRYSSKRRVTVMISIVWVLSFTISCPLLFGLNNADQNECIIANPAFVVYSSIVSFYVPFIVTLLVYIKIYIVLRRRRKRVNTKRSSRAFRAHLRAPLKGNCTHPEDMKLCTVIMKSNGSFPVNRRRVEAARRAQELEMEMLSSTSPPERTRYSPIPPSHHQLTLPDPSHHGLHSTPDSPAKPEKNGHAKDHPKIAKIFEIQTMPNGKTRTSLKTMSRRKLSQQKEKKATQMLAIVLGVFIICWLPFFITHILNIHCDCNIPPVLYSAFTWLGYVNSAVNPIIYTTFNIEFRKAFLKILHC

Tests used:
Format in all cases: cell-based
Glu95^2.65Ala D2R = Glu95^2.65Ala D2R (Homo sapiens, UniProt P14416, E95A); assay: ERK1/2 phosphorylation assay at mutant D2R
D2LR = D2LR (Homo sapiens, UniProt P14416); assay: ERK1/2 phosphorylation assay, interaction with dopamine; conditions: Table 5, Wild Type
Val91^2.61Ala D2R = Val91^2.61Ala D2R (Homo sapiens, UniProt P14416, V91A); assay: ERK1/2 phosphorylation assay at mutant D2R

Compound `CCCCNC(=O)c1cc2ccccc2[nH]1` [Compound 11d, N-Butyl-1H-indole-2-carboxamide] has a Kb (Glu95^2.65Ala D2R) of 5.01 µM, a Kb (D2LR; KB) of 6 µM and a Kb (D2LR; pKB) of 6.17 µM. It also gave a Kb (Val91^2.61Ala D2R) of 85.1 µM.
